From publication PMC10665015

Molecular target: FtsH (thylakoid hetero-oligomeric FtsH complex composed of FtsH1 (type-A) and FtsH2 (type-B)), Chlamydomonas reinhardtii (C. reinhardtii (endogenous in thylakoid membranes))

D1 degradation assay: D1 level left (immunoblot) in cells under high light with chloramphenicol, time course to 90 min (% of the initial level): 50
Substance: Photosystem II reaction center protein D1 (PsbA) W14F/W317F, Chlamydomonas reinhardtii (from UniProt P07753 1-344) (natural protein)
